Experiment [1] has as its system rat heart rate and blood pressure. Nature of the experiment: In vivo rat heart rate and blood pressure. To be noted: anesthetized rats, intravenous. Here is the method: Rats were anesthetized with urethan and blood pressure was monitored via a carotid cannula. Drug injections were made intravenously through a jugular cannula. Blood pressure, EGC, and heart rate were recorded on a Grass polygraph.

In the next experiment the test system is adenosine receptors. The following applies: cited from earlier work.

Regarding `CCNC(=O)[C@H]1O[C@@H](n2cnc3c(N)ncnc32)[C@H](O)[C@@H]1O` [NECA, 5'-N-ethylcarboxamido-adenosine], the blood pressure result in experiment [1] is “decrease in blood pressure”. For the same compound, the receptor selectivity entry in the experiment on adenosine receptors is “selective for A2 adenosine receptors”.
Consider `Cn1c(=O)c2[nH]cnc2n(C)c1=O` [theophylline], for which the “antagonism at adenosine receptors” value in the experiment with adenosine receptors is reported as “best known antagonists at adenosine receptors”.

Values taken from patent US5117830A, “Method of determining viability of tissue” (priority 1990, dated 1992).
